Measurements published in PMC5927803 (Pharmacology Research & Perspectives, 2018).

Test system: rat isolated tracheal tissue
Experiment: Antagonism of ACh-evoked contraction: potency and offset time
Conditions: ACh concentration-response curve

SMILES: CC(C)[N+]1(C)[C@@H]2CC[C@H]1C[C@@H](OC(=O)C(CO)c1ccccc1)C2 (stereo partly shown) [Ipratropium, reference compound]
- nature of antagonism: surmountable antagonist
